ChEMBL document CHEMBL4229390, “Structure-guided evolution of a 2-phenyl-4-carboxyquinoline chemotype into PPARα selective agonists: New leads for oculovascular conditions” (Bioorg Med Chem Lett, 2018)
Calls of active or inactive are those of the source. The calls are words filed in the database; no cut-off is given here.

Key:
[1] = target: T1, Peroxisome proliferator-activated receptor alpha (Homo sapiens) (UniProt Q07869); experiment: Agonist activity at human PPARalpha at 5 uM after 22 to 24 hrs by luciferase reporter gene assay
T1 sequence (whole entry): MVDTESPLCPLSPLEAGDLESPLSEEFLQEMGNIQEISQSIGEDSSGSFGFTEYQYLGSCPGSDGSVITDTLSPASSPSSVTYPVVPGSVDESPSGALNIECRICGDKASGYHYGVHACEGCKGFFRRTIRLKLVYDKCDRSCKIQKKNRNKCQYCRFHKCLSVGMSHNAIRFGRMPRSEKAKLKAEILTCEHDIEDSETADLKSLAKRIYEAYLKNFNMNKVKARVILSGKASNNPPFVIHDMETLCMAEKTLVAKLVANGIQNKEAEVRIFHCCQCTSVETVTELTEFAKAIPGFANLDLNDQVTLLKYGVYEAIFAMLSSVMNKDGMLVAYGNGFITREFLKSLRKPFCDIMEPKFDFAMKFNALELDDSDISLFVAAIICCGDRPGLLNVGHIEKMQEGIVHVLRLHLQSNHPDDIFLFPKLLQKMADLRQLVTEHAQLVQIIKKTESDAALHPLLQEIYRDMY
In short: (§1)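 hPPARα luciferase reporter cells; read-out via oxyluciferin production. Single-concentration screen at 5 and 50 μM; GW590735 control at 5 and 10 μM. Fold-induction over DMSO control ± S.E. (n = 3), single experiment.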

[2] = target: T1, Peroxisome proliferator-activated receptor alpha (Homo sapiens); experiment: Agonist activity at human PPARalpha at 10 uM after 22 to 24 hrs by luciferase reporter gene assay; in short: as §1

COc1ccc(COc2ccc(CNc3cccc(C(=O)O)c3)cc2)cc1
Activity [1]: Active | Activity [2]: Active
